By UniProt entry, the sequences of proteins in these tests, tags left out. Where a name states a change or a piece, a line headed by the entry shows the natural chain unless it says otherwise.
UniProt Q86W56: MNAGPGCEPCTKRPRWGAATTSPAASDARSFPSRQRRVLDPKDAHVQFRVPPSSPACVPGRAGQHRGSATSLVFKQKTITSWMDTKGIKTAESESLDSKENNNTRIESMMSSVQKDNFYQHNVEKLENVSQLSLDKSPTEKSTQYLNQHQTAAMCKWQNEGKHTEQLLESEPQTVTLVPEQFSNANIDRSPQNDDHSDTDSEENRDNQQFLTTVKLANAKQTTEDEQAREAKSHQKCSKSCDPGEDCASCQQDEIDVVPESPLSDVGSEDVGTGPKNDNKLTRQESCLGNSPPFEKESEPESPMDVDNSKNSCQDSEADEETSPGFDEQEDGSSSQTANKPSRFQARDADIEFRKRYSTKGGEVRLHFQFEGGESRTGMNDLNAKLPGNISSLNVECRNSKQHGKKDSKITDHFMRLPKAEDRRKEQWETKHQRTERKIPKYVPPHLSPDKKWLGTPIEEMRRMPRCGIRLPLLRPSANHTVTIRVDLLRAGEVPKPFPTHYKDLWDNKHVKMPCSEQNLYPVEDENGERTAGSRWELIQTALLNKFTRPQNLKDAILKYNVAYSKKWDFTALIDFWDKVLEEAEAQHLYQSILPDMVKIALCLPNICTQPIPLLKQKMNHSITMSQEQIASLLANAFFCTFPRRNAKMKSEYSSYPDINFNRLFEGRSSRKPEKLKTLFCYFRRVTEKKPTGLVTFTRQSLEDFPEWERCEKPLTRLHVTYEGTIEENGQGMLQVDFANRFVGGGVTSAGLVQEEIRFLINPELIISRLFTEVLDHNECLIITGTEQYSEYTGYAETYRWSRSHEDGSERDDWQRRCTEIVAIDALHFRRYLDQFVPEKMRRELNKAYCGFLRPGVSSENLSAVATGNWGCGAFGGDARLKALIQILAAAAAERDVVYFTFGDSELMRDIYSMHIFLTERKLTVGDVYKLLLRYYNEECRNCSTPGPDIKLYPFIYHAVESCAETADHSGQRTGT

According to ChEMBL document CHEMBL4261639, “Cell-Active Small Molecule Inhibitors of the DNA-Damage Repair Enzyme Poly(ADP-ribose) Glycohydrolase (PARG): Discovery and Optimization of Orally Bioavailable Quinazolinedione Sulfonamides” (J Med Chem, 2018):

Target: Poly(ADP-ribose) glycohydrolase (Homo sapiens, UniProt Q86W56)
Assay: Inhibition of human full length PARG using Bt-NAD ribosylated PARP1 substrate after 10 mins by TR-FRET assay

| EC50 | Compound |
| --- | --- |
| > 70000 nM | O=C(Nc1ccc(Oc2ccc3ccccc3c2)c(Cl)c1)c1cc(Cl)cc(Cl)c1O |
| 170 nM | CCn1c(=O)n(Cc2cnn(C)c2)c(=O)c2cc(S(=O)(=O)NC3(C)CC3)ccc21 |
